Measurements as given in patent US20220324865A1 (Bayer Aktiengesellschaft, priority 2018, published 2022).

Sequences of proteins named here, by UniProt entry; tags and fusion partners are left off.
UniProt P43115, whole entry: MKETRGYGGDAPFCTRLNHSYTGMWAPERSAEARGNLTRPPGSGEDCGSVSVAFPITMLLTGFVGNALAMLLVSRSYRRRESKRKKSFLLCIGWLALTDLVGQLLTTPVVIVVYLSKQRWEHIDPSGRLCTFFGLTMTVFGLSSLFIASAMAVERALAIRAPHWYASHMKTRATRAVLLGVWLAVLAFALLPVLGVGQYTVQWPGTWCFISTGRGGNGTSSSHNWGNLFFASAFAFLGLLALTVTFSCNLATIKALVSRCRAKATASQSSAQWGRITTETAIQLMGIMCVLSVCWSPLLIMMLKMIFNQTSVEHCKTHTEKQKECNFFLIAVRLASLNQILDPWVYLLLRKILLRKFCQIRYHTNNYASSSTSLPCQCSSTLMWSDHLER

Biological target: human EP3 receptor (Homo sapiens, UniProt P43115)
Assay: Cellular in vitro assay for determining EP3 receptor activity (human EP3 cell line, sulprostone-stimulated calcium luminescence)
Conditions: read-out: EP3 CHO mtCLY ANTAG IC50, CHO cells expressing human EP3 and mitochondrial Clytin, antagonist mode, sulprostone at EC50
Experimental: B-1. Cellular In Vitro Assay for Determining EP3 Receptor Activity
The identification of antagonists of the EP3 receptor from humans and rats as well as the quantification of the activity of the compounds of the invention was carried out using recombinant cell lines. These cell lines originally derive from a hamsters ovary epithelial cell (Chinese Hamster Ovary, CHO K1, ATCC: American Type Culture Collection, Manassas, Va. 20108, USA). The test cell lines constitutively express the human or rat EP3 receptors. The naturally Gαi-coupled human and rat EP3 receptors were stably co-transfected with Gα16 into cells that are also stably transfected with a mitochondrial form of the calcium-sensitive photoproteins Clytin (human EP3) or Photina (rat EP3), which, after reconstitution with the cofactor coelenterazine, emit light when there are increases in free calcium concentrations (Nature 1992, 358, 325-327; Gene 1995, 153 (2), 273-274). The resulting EP3 receptor cells react to stimulation of the recombinantly expressed EP3 receptors by the agonist sulprostone with intracellular release of calcium ions, which can be quantified by the resulting photoprotein luminescence. Antagonists inhibit the receptor signaling, leading to reduced calcium release and luminescence. The bioluminescence of the cell lines is detected using a suitable luminometer (Trends Pharmacol. Sci. 1996, 17, 235-237).
Human and Rat EP3 Cell Lines:
On the day before the assay, the cells are plated out in culture medium (OptiMEM, 1% FCS, 2 mM glutamine, 10 mM HEPES, 5 μg/ml coelenterazine) in 384-well microtiter plates and kept in a cell incubator (96% humidity, 5% v/v CO2, 37° C.). On the day of the assay, test compounds in various concentrations are placed for 10 minutes in the wells of the microtiter plate before the agonist sulprostone at EC50 concentration is added. The resulting light signal is measured immediately in a luminometer. All concentrations are measured in quadruples.

Structure (SMILES)	pIC50	pIC50 (tested form: formate)
CN1CC(NC(=O)c2nn3cc(-c4cccc(Cl)c4)[nH]c(=O)c3c2C2CC2)(c2ccc(F)cc2)C1	7.72	–
Cc1ccc(-c2cn3nc(C(=O)N[C@@H](c4ccc(F)cc4)[C@@H](O)C(F)(F)F)cc3c(=O)[nH]2)cc1F	9.13	–
Cc1cc(-c2cn3nc(C(=O)N[C@@H](c4ccc(F)cc4)C(C)(C)O)c(C(F)(F)F)c3c(=O)[nH]2)ccc1C(F)(F)F	8.09	–
Cc1ccc(-c2cn3nc(C(=O)NC4CCN(CC(F)(F)F)C4)c(C4CC4)c3c(=O)[nH]2)cc1C (single isomer, unassigned) [6-462]	8.92	–
CCC1(NC(=O)c2cc3c(=O)[nH]c(-c4ccc5c(c4)OCCO5)cn3n2)CN(C(=O)OC(C)(C)C)C1	8.78	–
Cc1ccc(-c2cn3nc(C(=O)N[C@@H](c4ccc(F)cc4)C(C)(C)O)cc3c(=O)[nH]2)cc1C1CC1	8.56	–
Cc1ccc(-c2cn3nc(C(=O)N[C@H](C)CO)c(C4CC4)c3c(=O)[nH]2)cc1Cl	8.65	–
Cc1ccc(-c2cn3nc(C(=O)N[C@H](CN4CC[C@@H](F)C4)c4ccccc4)cc3c(=O)[nH]2)cc1C	8.36	–
Cc1ccc(-c2cn3nc(C(=O)N[C@@H](c4ccc(F)cc4)[C@H](O)C(F)(F)F)c(C(F)(F)F)c3c(=O)[nH]2)cc1Cl	9.08	–
Cc1ccc(-c2cn3nc(C(=O)N[C@@H](C)CO)c(C4CC4)c3c(=O)[nH]2)cc1Cl	8.76	–
O=C(N[C@@H](c1ccc(F)cc1)C(F)(F)CO)c1nn2cc(-c3ccc(Cl)c(C(F)F)c3)[nH]c(=O)c2c1C1CC1	8.22	–
Cc1ccc(-c2cn3nc(C(=O)NCC(O)C(F)(F)F)c(C(F)(F)F)c3c(=O)[nH]2)cc1F (single isomer, unassigned) [6-139]	7.70	–
CN1CCOc2ccc(-c3cn4nc(C(=O)N[C@H](CCO)c5ccc(F)cc5)cc4c(=O)[nH]3)cc21	8.67	–
O=C(N[C@H](CN1CC[C@@H](F)C1)c1ccc(F)cc1)c1nn2cc(-c3ccc(Cl)c(F)c3)[nH]c(=O)c2c1C1CC1	9.08	–
Cc1ccc(-c2cn3nc(C(=O)NCC(O)C(F)F)c(C4CC4)c3c(=O)[nH]2)cc1C (single isomer, unassigned) [6-430]	8.72	–
Cc1cc(-c2cn3nc(C(=O)N[C@@H](C)CO)c(C4CC4)c3c(=O)[nH]2)ccc1Cl	8.08	–
COc1ccc(C2(NC(=O)c3cc4c(=O)[nH]c(-c5ccc6c(c5)OCCO6)cn4n3)CN(C)C2)cc1	–	8.02
Cc1cc(-c2cn3nc(C(=O)N[C@@H](C)C(C)(C)C)c(C(F)(F)F)c3c(=O)[nH]2)ccc1Cl	8.96	–
Cc1ccc(-c2cn3nc(C(=O)NC(CO)c4ccc(F)cc4)c(C4CC4)c3c(=O)[nH]2)cc1F (racemic)	9.05	–
Cc1ccc(-c2cn3nc(C(=O)NC4CCN(CC(F)(F)F)C4)c(C4CC4)c3c(=O)[nH]2)cc1C (single isomer, unassigned) [6-463]	9.12	–
COC(=O)[C@H](O)[C@@H](NC(=O)c1cc2c(=O)[nH]c(-c3ccc(C)c(C)c3)cn2n1)c1ccccc1	8.60	–

Structure (SMILES)	pIC50	pIC50 (tested form: formate)
Cc1ccc(-c2cn3nc(C(=O)NC4(c5ccc(F)cc5)CN(C)C4)cc3c(=O)[nH]2)cc1C1CC1	8.03	–
O=C(N[C@H](CCO)c1ccc(F)cc1)c1nn2cc(-c3ccc(Cl)c(F)c3)[nH]c(=O)c2c1C1CC1	9.32	–
Cc1cc(-c2cn3nc(C(=O)N[C@@H](c4ccc(F)cc4)C(F)(F)CO)c(C4CC4(F)F)c3c(=O)[nH]2)ccc1Cl (stereo partly drawn)	8.96	–
Cc1ccc(-c2cn3nc(C(=O)NCC(O)C(F)(F)F)c(C(F)(F)F)c3c(=O)[nH]2)cc1F (single isomer, unassigned) [6-140]	8.46	–
COc1ccc([C@@H](C)NC(=O)c2cc3c(=O)[nH]c(-c4ccc5ccccc5c4)c(C)n3n2)cn1	8.81	–
O=C(NCC1CCCCC1)c1cc2c(=O)[nH]c(-c3ccc4ccccc4c3)cn2n1	8.71	–
O=C(NC(CN1CCOCC1)c1ccc(F)cc1)c1nn2cc(-c3ccc4ccccc4c3)[nH]c(=O)c2c1C(F)(F)F (single isomer, unassigned) [6-504]	8.87	–
O=C(N[C@H](CN1CC[C@H](F)C1)c1ccc(F)cc1)c1nn2cc(-c3ccc(Cl)c(F)c3)[nH]c(=O)c2c1C1CC1	9.18	–
Cc1ccc(-c2cn3nc(C(=O)NCC(O)C(F)F)c(C(F)(F)F)c3c(=O)[nH]2)cc1Cl (single isomer, unassigned) [6-184]	8.44	–
Cc1ccc(-c2cn3nc(C(=O)NC4CCN(CC(F)(F)F)C4)c(C4CC4)c3c(=O)[nH]2)cc1F (stereo not drawn)	8.51	–
Cc1ccc(-c2cn3nc(C(=O)NCC(N)C(F)(F)F)c(C(F)(F)F)c3c(=O)[nH]2)cc1Cl (single isomer, unassigned) [6-167]	8.06	–
Cc1ccc(-c2cn3nc(C(=O)NC[C@]4(C5CC5)NC(=O)NC4=O)c(C(F)(F)F)c3c(=O)[nH]2)cc1Cl	8.26	–
Cc1ccc(-c2cn3nc(C(=O)N[C@H](CN4CC[C@H](F)C4)c4ccccc4)cc3c(=O)[nH]2)cc1C	8.61	–
Cc1ccc(-c2cn3nc(C(=O)N[C@@H](c4ccc(F)cc4)C(C)(C)O)c(C4CC4)c3c(=O)[nH]2)cc1Cl	8.65	–
Cc1cc(-c2cn3nc(C(=O)N[C@@H](c4ccc(F)cc4)C(F)(F)CO)c(C4CC(F)(F)C4)c3c(=O)[nH]2)ccc1Cl	8.37	–
Cc1ccc(-c2cn3nc(C(=O)NC(CO)C4CC4)c(C4CC4)c3c(=O)[nH]2)cc1Cl (single isomer, unassigned) [6-268]	8.06	–
COC[C@@H](C)NC(=O)c1nn2cc(-c3ccc(C)c(F)c3)[nH]c(=O)c2c1C1CC1	8.04	–
Cc1ccc(-c2cn3nc(C(=O)NCC(O)C(F)F)c(C4CC4)c3c(=O)[nH]2)cc1Cl (stereo not drawn)	9.11	–
Cc1ccc(-c2cn3nc(C(=O)NC4CCN(CC(F)F)C4)c(C4CC4)c3c(=O)[nH]2)cc1C (single isomer, unassigned)	8.55	–
COC[C@@H](C)NC(=O)c1nn2cc(-c3ccc(C)c(Cl)c3)[nH]c(=O)c2c1C1CC1	8.97	–
Cc1ccc(-c2cn3nc(C(=O)NC(C)c4ccc(OCC(F)(F)F)cn4)cc3c(=O)[nH]2)cc1C (stereo not drawn)	8.35	–

Structure (SMILES)	pIC50	pIC50 (tested form: formate)
Cc1ccc(-c2cn3nc(C(=O)N[C@@H](c4ccc(F)cc4)C(C)(C)O)cc3c(=O)[nH]2)cc1Cl	8.77	–
CC(CO)NC(=O)c1nn2cc(-c3ccc4c(c3)OCCO4)[nH]c(=O)c2c1C1CC1 (single isomer, unassigned) [6-468]	8.35	–
CC(C)c1c(C(=O)NC2(c3ccc(F)cc3)CN(C)C2)nn2cc(-c3ccc(Cl)cc3)[nH]c(=O)c12	8.40	–
O=C(NCCCF)c1cc2c(=O)[nH]c(-c3ccc4cccc(F)c4c3)cn2n1	8.20	–
Cc1ccc(-c2cn3nc(C(=O)N[C@@H](CO)C(C)C)c(C4CC4)c3c(=O)[nH]2)cc1Cl	8.74	–
C[C@H](NC(=O)c1nn2cc(-c3ccc(C(F)(F)F)c(F)c3F)[nH]c(=O)c2c1C1CC1)C1CC1	8.03	–
Cc1cc(-c2cn3nc(C(=O)NCCNCC(F)F)c(C4CC4)c3c(=O)[nH]2)ccc1Cl	8.57	–
Cc1ccc(-c2cn3nc(C(=O)NCCNCC(F)F)c(C4CC4)c3c(=O)[nH]2)cc1F	8.49	–
Cc1ccc(-c2cn3nc(C(=O)NC(CO)C(F)(F)F)c(C4CC4)c3c(=O)[nH]2)cc1Cl (stereo not drawn)	8.87	–
CCN1CCC(NC(=O)c2nn3cc(-c4ccc5ccccc5c4)[nH]c(=O)c3c2C(F)(F)F)(C(F)(F)F)C1 (stereo not drawn)	–	8.36
Cc1cc(-c2cn3nc(C(=O)N[C@@H](c4ccc(F)cc4)C(F)(F)CO)c(C4CC4)c3c(=O)[nH]2)ccc1F	8.85	–
Cc1ccc(-c2cn3nc(C(=O)N[C@H](C)C4CC4)c(C4CC4)c3c(=O)[nH]2)cc1F	8.68	–
O=C(N[C@@H](c1ccc(F)cc1)C(F)(F)CO)c1nn2cc(-c3ccc(Cl)c(F)c3)[nH]c(=O)c2c1C1CC(F)(F)C1	8.14	–
Cc1ccc(-c2cn3nc(C(=O)N[C@@H](c4ccc(F)cc4)[C@@H](O)C(F)(F)F)c(C4CC4)c3c(=O)[nH]2)cc1F	8.55	–
Cc1ccc(-c2cn3nc(C(=O)NC(CO)c4ccc(F)cc4)c(C(F)(F)F)c3c(=O)[nH]2)cc1Cl (stereo not drawn)	8.73	–
CC(C)(O)C(NC(=O)c1nn2cc(-c3ccc(Cl)c(F)c3)[nH]c(=O)c2c1C1CC1)c1ccc(F)c(F)c1 (single isomer, unassigned) [6-101]	7.95	–
CN(C)CC(NC(=O)c1nn2cc(-c3ccc4ccccc4c3)[nH]c(=O)c2c1C(F)(F)F)c1ccc(F)cc1 (single isomer, unassigned) [6-507]	8.59	–
Cc1cc(-c2cn3nc(C(=O)N[C@H](CN4CC[C@H](F)C4)c4ccc(F)cc4)c(C4CC4)c3c(=O)[nH]2)ccc1Cl	9.03	–
CC(C)c1c(C(=O)N[C@@H](c2ccc(F)cc2)C(F)(F)CO)nn2cc(-c3ccc(Cl)cc3)[nH]c(=O)c12	8.81	–
COc1ccc(C2(NC(=O)c3nn4cc(-c5ccc(C)c(Cl)c5)[nH]c(=O)c4c3C(F)(F)F)CN(C)C2)cc1	8.67	–
Cc1ccc(-c2cn3nc(C(=O)N[C@@H](c4ccc(F)cc4)[C@H](O)C(F)(F)F)c(C4CC4)c3c(=O)[nH]2)cc1F	8.51	–

pIC50: −log10 of the molar value. Where two headings read alike, the source gives them in different places.
